Values quoted from earlier work in patent US20100286272A1, “Methods Of Use Of Nitroalkene Compositions In Dermatologic Applications” (priority 2009, published 2010).

Protein sequences, listed by entry. Tags and fused reporters are not part of them. Residues count along the entry.
UniProt P80457, 2-1332 limits assumed: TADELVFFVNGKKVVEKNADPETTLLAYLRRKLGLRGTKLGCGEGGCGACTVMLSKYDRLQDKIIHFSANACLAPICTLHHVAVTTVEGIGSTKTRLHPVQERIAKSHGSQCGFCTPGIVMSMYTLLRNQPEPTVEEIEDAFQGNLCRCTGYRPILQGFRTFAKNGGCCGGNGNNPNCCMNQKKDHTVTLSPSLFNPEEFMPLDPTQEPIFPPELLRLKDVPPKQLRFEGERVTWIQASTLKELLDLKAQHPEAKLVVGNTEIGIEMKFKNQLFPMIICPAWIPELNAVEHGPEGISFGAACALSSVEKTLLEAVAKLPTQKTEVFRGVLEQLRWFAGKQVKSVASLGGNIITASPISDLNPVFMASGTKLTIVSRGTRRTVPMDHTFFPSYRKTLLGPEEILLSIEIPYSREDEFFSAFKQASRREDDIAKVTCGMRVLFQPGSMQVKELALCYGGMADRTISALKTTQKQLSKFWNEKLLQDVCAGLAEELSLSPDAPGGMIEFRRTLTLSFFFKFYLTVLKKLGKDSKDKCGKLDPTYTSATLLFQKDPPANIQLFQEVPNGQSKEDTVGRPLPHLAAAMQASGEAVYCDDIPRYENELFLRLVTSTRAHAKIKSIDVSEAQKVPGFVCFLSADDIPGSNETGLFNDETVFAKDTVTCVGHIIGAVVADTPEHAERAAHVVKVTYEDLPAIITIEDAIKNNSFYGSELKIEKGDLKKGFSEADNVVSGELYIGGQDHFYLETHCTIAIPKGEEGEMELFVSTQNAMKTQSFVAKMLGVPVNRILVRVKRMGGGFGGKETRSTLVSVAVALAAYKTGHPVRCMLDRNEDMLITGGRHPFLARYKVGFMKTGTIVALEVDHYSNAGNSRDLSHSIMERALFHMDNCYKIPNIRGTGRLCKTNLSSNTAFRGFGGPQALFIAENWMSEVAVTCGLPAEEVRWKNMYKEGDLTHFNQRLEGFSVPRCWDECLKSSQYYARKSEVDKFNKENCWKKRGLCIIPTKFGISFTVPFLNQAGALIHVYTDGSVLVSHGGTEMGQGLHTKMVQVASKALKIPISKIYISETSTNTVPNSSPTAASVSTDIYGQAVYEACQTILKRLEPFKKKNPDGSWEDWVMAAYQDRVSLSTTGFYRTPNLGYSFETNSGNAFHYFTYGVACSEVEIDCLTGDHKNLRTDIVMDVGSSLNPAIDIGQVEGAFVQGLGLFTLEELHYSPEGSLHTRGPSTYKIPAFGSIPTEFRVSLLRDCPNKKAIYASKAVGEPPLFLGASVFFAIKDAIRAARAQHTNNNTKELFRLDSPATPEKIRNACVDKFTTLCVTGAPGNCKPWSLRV

Target: xanthine oxidoreductase (XOR) (Bos taurus, UniProt P80457)
Conditions: read-out: IC50 of xanthine oxidoreductase (XOR) activity inhibition; reported by Kelley et al., J Biol Chem, 2008

CCCCCCCC/C(=C\CCCCCCCC(=O)O)[N+](=O)[O-]
pIC50: 6.22

pIC50: −log10 of the molar value.
